By UniProt entry, the sequences of proteins in these tests, tags left out. Residues count along the entry.
UniProt Q9H3R0, 1-420 limits assumed: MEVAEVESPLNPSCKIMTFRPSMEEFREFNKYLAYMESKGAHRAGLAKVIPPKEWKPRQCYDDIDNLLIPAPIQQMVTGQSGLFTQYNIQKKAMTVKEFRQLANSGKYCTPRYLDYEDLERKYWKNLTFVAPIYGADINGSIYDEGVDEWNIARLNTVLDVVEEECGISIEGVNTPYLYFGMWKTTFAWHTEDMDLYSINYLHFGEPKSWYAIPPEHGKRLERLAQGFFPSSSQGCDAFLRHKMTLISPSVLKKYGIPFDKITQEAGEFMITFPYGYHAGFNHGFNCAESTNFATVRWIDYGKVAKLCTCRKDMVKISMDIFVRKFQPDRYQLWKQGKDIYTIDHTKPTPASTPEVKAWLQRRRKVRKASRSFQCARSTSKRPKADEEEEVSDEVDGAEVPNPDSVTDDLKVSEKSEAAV

This is a selection; strong and weak results do not stand in their true shares. Some structures show a salt or complex split into parts, the way the source records it. Calls of active or inactive are those of the source.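 The calls were made as follows: active = more than half of a compound's replicate wells show inhibition beyond 50%, single wells judged on their own value; inconclusive = some, but no more than half, of replicates pass 50% inhibition; inactive = no replicate passes 50% inhibition.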
These compounds were tested against Lysine-specific demethylase 4C (Homo sapiens) (UniProt Q9H3R0) (assay: JMJD2C H3K9me3 demethylation blockers – biochemical, fluorescence, DELFIA europium, primary screen (AID 2099;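 also: signal counts dimethyl H3K9 product captured on neutravidin plate; 0% = median of DMSO wells and 100% = 0.3 times that DMSO median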)). Conditions: GST-JMJD2C(1-420) H3K9me3 demethylation, at 2.35 µM, active compounds read high.
With `O=[N+]([O-])c1ccc2c(c1)C=Nc1ccccc1O2` the inhibition was inactive: -1.41%. With `Cc1cccc(C)c1OP(C)(N)=O` (configuration not stated) the inhibition was inactive: 1.59%. For `CC(C)(C)c1ccc(OP(C)(=O)Nc2ccc(SC(F)(F)F)cc2)cc1` (configuration not stated), the inhibition was inactive: -6.6%. In the case of `O=[N+]([O-])c1cc([N+](=O)[O-])c(Nc2cccnc2)c([N+](=O)[O-])c1`, the inhibition was inactive: -2.72%. In the case of `Cc1cc(C)cc(OP(C)(N)=O)c1` (configuration not stated), the inhibition was inactive: -2.9%. For `COc1ccc(OP(C)(=O)Nc2cccc(F)c2)cc1` (configuration not stated), the inhibition was inactive: 1.45%. With `COc1ccccc1OP(C)(=O)Nc1cc(Cl)ccc1C` (configuration not stated) the inhibition was inactive: 1.25%. In the case of `Cc1ccc(NP(C)(=O)Oc2ccccc2)c(C)c1` (configuration not stated), the inhibition was inactive: 29.2%. For `COc1ccccc1OP(C)(=O)Nc1ccc(C)cc1` (configuration not stated), the inhibition was inactive: -47.7%. In the case of `CCOC(=O)c1ccc(NP(C)(=O)Oc2ccccc2)cc1` (configuration not stated), the inhibition was inactive: 6.55%. `CCN(CC)CCCOC(=O)C(O)(c1ccccc1)c1ccccc1` was tested, and the inhibition was inactive: -0.535%. For `Cc1cc(C)cc(OP(C)(=O)Nc2ccc(SC(F)(F)F)cc2)c1` (configuration not stated), the inhibition was inactive: 5.1%. `CCc1ccc(OP(C)(=O)N2CCN(c3ccc([N+](=O)[O-])cc3)CC2)cc1` (configuration not stated) was tested, and the inhibition was inactive: 16.5%. For `CP(=O)(NC(=O)Nc1ccccc1)Oc1ccccc1` (configuration not stated), the inhibition was inactive: 4.47%. With `CP(=O)(Oc1ccccc1)OC(c1ccccc1)C(F)(F)F` (configuration not stated) the inhibition was inactive: -5.79%. In the case of `Cc1cccc(C)c1OP(C)(=O)Nc1ccc(SC(F)(F)F)cc1` (configuration not stated), the inhibition was inactive: 2.79%. With `CP(=O)(Nc1ccc(SC(F)(F)F)cc1)Oc1ccc(Cl)cc1` (configuration not stated) the inhibition was inactive: 1.17%. `CP(=O)(Nc1ccccn1)Oc1ccc(Cl)cc1` (configuration not stated) was tested, and the inhibition was inactive: -6.55%. For `CCOC(=O)c1ccc(NP(C)(=O)Oc2ccc(OC)cc2)cc1` (configuration not stated), the inhibition was inactive: 5.31%. In the case of `O=[N+]([O-])c1cc([N+](=O)[O-])c(O)c([N+](=O)[O-])c1.c1ccc(Oc2ccncc2)cc1`, the inhibition was inactive: 13.9%. With `CCOP(C)(=S)SCC(=O)NC(C)C(=O)O` (configuration not stated) the inhibition was inactive: 3.52%. For `CP(=O)(Nc1ccccc1Br)Oc1ccccc1` (configuration not stated), the inhibition was inactive: -9.1%. For `COc1ccccc1OP(C)(=O)Nc1ccccc1` (configuration not stated), the inhibition was inactive: -14.3%. For `CP(=S)(Nn1cnnc1)Oc1ccccc1` (configuration not stated), the inhibition was inactive: 3.78%. In the case of `CCOC(=O)C(CC)C1=NC(C)(C)Cc2ccccc21.O=[N+]([O-])c1cc([N+](=O)[O-])c(O)c([N+](=O)[O-])c1` (configuration not stated), the inhibition was inactive: 1.67%. In the case of `O=[N+]([O-])c1cc([N+](=O)[O-])c(Nc2nnnn2CCO)c([N+](=O)[O-])c1`, the inhibition was inactive: 4.9%. With `CP(=O)(Nc1ccc(SC(F)(F)F)cc1)Oc1ccccc1` (configuration not stated) the inhibition was inactive: 9.75%. For `CCCOc1ccc(NP(C)(=O)Oc2ccc(Cl)cc2)cc1` (configuration not stated), the inhibition was inactive: -12%. For `COc1ccccc1OP(C)(=O)Nc1c(C)cccc1C` (configuration not stated), the inhibition was inactive: -5.16%. `CN1CCCCC1COC(=O)C1(O)c2ccccc2CCc2ccccc21` (configuration not stated) was tested, and the inhibition was inactive: -1.24%. With `O=[N+]([O-])c1cc([N+](=O)[O-])c(-n2nnc3ccccc32)c([N+](=O)[O-])c1` the inhibition was inactive: -4.89%. In the case of `CCOC(=O)c1ccc(NP(C)(=O)Oc2cc(C)cc(C)c2)cc1` (configuration not stated), the inhibition was inactive: 3.04%. In the case of `Cc1cc(C)cc(OP(C)(=O)Nc2ccc(C)cc2C)c1` (configuration not stated), the inhibition was inactive: 11%. With `COc1ccccc1OP(C)(=O)Nc1cccc(Br)c1` (configuration not stated) the inhibition was inactive: -4.55%. For `Cc1ccc(C)c(NP(C)(=O)Oc2ccccc2)c1` (configuration not stated), the inhibition was inactive: -8.18%. In the case of `CP(=O)(Nc1cccc(Br)c1)Oc1ccccc1` (configuration not stated), the inhibition was inactive: -2.52%. With `Cc1cc(C)cc(OP(C)(=O)Nc2ccccn2)c1` (configuration not stated) the inhibition was inactive: 1.63%. `O=C(O)c1cccc(Nc2c([N+](=O)[O-])cc([N+](=O)[O-])cc2[N+](=O)[O-])c1` was tested, and the inhibition was inactive: 5.39%. For `CC1=NCCc2c1[nH]c1ccccc21.O=[N+]([O-])c1cc([N+](=O)[O-])c(O)c([N+](=O)[O-])c1`, the inhibition was inactive: 2.44%. With `CCOC(=O)c1ccc(NP(C)(=O)Oc2ccc(F)cc2)cc1` (configuration not stated) the inhibition was inactive: -3.66%. In the case of `COc1ccc(OP(C)(=O)Nc2ccc(SC(F)(F)F)cc2)cc1` (configuration not stated), the inhibition was inactive: 24.1%. `CP(=O)(Nc1ccccc1)Oc1ccc(F)cc1` (configuration not stated) was tested, and the inhibition was inactive: 10.9%. `CCCCCOc1ccc(NP(C)(=O)Oc2ccc(Cl)cc2Cl)cc1` (configuration not stated) was tested, and the inhibition was inactive: 7.73%. `O=[N+]([O-])c1cc([N+](=O)[O-])c(OC2CCCCC2O)c([N+](=O)[O-])c1` (configuration not stated) was tested, and the inhibition was inactive: 0.683%. With `CCN(CC)CCCOC(=O)C(O)(c1ccccc1)C1CCCCC1` (configuration not stated) the inhibition was inactive: -6.84%. In the case of `CP(=O)(Nc1ccccc1F)Oc1ccccc1` (configuration not stated), the inhibition was inactive: -1.25%. `CC(C)c1ccc(OP(C)(=O)Nc2ccc(SC(F)(F)F)cc2)cc1` (configuration not stated) was tested, and the inhibition was inactive: 28.6%. For `COc1ccc2c(c1O)-c1c(O)c(OC)cc3c1[C@H](C2)[N+](C)(C)CC3.O=[N+]([O-])c1cc([N+](=O)[O-])c([O-])c([N+](=O)[O-])c1[O-]`, the inhibition was inactive: -2.34%. With `O=C(OC1CN2CCC1CC2)c1ccc([N+](=O)[O-])cc1` (configuration not stated) the inhibition was inactive: -5.58%. `O=C(OCCN1CCN(CCOCc2ccccc2)CC1)C(O)(c1ccccc1)c1ccccc1` was tested, and the inhibition was inactive: -2.58%. `CCOP(C)(=S)SCC(=O)NC(C)(CC)C(=O)O` (configuration not stated) was tested, and the inhibition was inactive: -2.33%. With `CP(=O)(Nc1ccc(SC(F)(F)F)cc1)Oc1ccc(F)cc1` (configuration not stated) the inhibition was inactive: -3.93%. With `Cc1ccccc1NP(C)(=O)Nc1ccccc1C` the inhibition was inactive: -4.81%. `CP(=O)(Nc1ccc2c(c1)OCCO2)Oc1ccccc1` (configuration not stated) was tested, and the inhibition was inactive: -4.94%. In the case of `CN(C)CCOC(=O)C(O)(c1ccccc1)C1CCCCC1` (configuration not stated), the inhibition was inactive: -0.714%. For `COc1ccc(NP(C)(=O)Oc2ccccc2OC)cc1` (configuration not stated), the inhibition was inactive: -6.68%. With `COc1ccc(OP(C)(=O)Nc2cccc(Br)c2)cc1` (configuration not stated) the inhibition was inactive: 6.18%. In the case of `O=[N+]([O-])c1ccc(OP2(=O)COCCO2)cc1` (configuration not stated), the inhibition was inactive: -0.286%. With `Cc1cc(-c2cccc3ccccc23)c(C)cn1.O=[N+]([O-])c1cc([N+](=O)[O-])c(O)c([N+](=O)[O-])c1` the inhibition was inactive: -6.76%. For `O=[N+]([O-])c1cc([N+](=O)[O-])c(NCC2CCS(=O)(=O)C2)c([N+](=O)[O-])c1` (configuration not stated), the inhibition was inactive: 4.69%. With `CCOC(=O)c1ccc(NP(C)(=O)Oc2ccc(Cl)cc2)cc1` (configuration not stated) the inhibition was inactive: 2.79%. For `CP(=O)(OC12CC3CC(CC(C3)C1)C2)OC12CC3CC(CC(C3)C1)C2`, the inhibition was inactive: -5.19%. For `Nc1ccc2c(ccc3cccnc32)n1.O=[N+]([O-])c1cc([N+](=O)[O-])c(O)c([N+](=O)[O-])c1`, the inhibition was inactive: -0.521%. In the case of `O=C(OCCCN1CCCC1)C(O)(c1ccccc1)C1CCCCC1` (configuration not stated), the inhibition was inactive: 23.4%. `COc1ccccc1OP(C)(=O)Nc1c(C)n(C)n(-c2ccccc2)c1=O` (configuration not stated) was tested, and the inhibition was inactive: -18.7%. With `CCc1ccc(OP(C)(=O)Nc2cccnc2)cc1` (configuration not stated) the inhibition was inactive: -1.8%. In the case of `CP(=O)(Oc1ccccc1)N1CCOC1=O` (configuration not stated), the inhibition was inactive: 0.337%. `COc1ccc(OP(C)(=O)Nc2ccc(Br)cc2)cc1` (configuration not stated) was tested, and the inhibition was inactive: -2.21%. `CCN(CC)CC(O)COC(=O)C(O)(c1ccccc1)C1CCCCC1` (configuration not stated) was tested, and the inhibition was inactive: 0.693%. `CN(C)C(=O)c1c([N+](=O)[O-])cc([N+](=O)[O-])cc1[N+](=O)[O-]` was tested, and the inhibition was inactive: -3.67%. `CC(C)(C)c1ccc(OP(C)(=O)O)cc1` was tested, and the inhibition was inactive: 1.72%. In the case of `COc1ccccc1OP(C)(=O)Nc1ccccc1Br` (configuration not stated), the inhibition was inactive: -0.708%. For `CP(=O)(Nc1ccc(Cl)cc1)Oc1ccc(F)cc1` (configuration not stated), the inhibition was inactive: -2.61%. In the case of `COc1ccc(OP(C)(=O)Nc2ccccn2)cc1` (configuration not stated), the inhibition was inactive: 1.28%. With `CN(C)CCOC(=O)C(O)(c1ccccc1)C1CCCC1` (configuration not stated) the inhibition was inactive: -3.77%. With `COc1ccccc1OP(C)(=O)Nc1ccc(Br)cc1` (configuration not stated) the inhibition was inactive: -17.9%. `COc1ccccc1OP(C)(=O)Nc1ccc(C)cc1C` (configuration not stated) was tested, and the inhibition was inactive: -1.71%. In the case of `CP(=O)(Nc1ccccn1)Oc1ccccc1` (configuration not stated), the inhibition was inactive: 2.81%. `CCc1ccc(OP(C)(=O)O)cc1` was tested, and the inhibition was inactive: -10.3%. `O=[N+]([O-])c1cc([N+](=O)[O-])c(Nc2ccccn2)c([N+](=O)[O-])c1` was tested, and the inhibition was inactive: -0.518%. In the case of `Cc1c(NP(C)(=O)Oc2ccc(C(C)C)cc2)c(=O)n(-c2ccccc2)n1C` (configuration not stated), the inhibition was inactive: 3.82%. In the case of `COc1ccccc1OP(C)(=O)Nc1ccc(C)c(C)c1` (configuration not stated), the inhibition was inactive: 6.55%. In the case of `COc1ccc(OP(C)(=O)Nc2ccccc2Br)cc1` (configuration not stated), the inhibition was inactive: -1.74%. In the case of `Cc1cc(C)cc(OP(C)(=O)Nc2cccc(C(F)(F)F)c2)c1` (configuration not stated), the inhibition was inactive: 4.59%. For `CP(=O)(OCCOc1ccccc1)OCCOc1ccccc1`, the inhibition was inactive: 6.06%. With `CP(=O)(Nc1ccc(Cl)cc1Cl)Oc1ccccc1` (configuration not stated) the inhibition was inactive: 2.99%. In the case of `Cc1nc2ccc3ccccc3c2o1.O=[N+]([O-])c1cc([N+](=O)[O-])c(O)c([N+](=O)[O-])c1`, the inhibition was inactive: -0.418%.

Reference: PubChem BioAssay AID2099 (Broad Institute, 2009)
